In publication PMC3077805:

Tested on: C[S+](CC[C@H](N)C(=O)O)C[C@H]1O[C@@H](n2cnc3c(N)ncnc32)[C@H](O)[C@@H]1O
Experiment: purified protein

CqsA (Vibrio cholerae O1 biovar El Tor str. N16961)
Km: 28.7 µM
